Results on three molecules are retold here after patent US7132420B2, “Aspartic protease inhibitors” (The United States of America as represented by the …, priority 1999, dated 2006).

The subject of this test is normal cells. The test is described as follows: toxicity against normal cells (IC50). The test is classed as cell-based. To be noted: read-out: normal IC50, Table 1. The text has this:
This example illustrates the HIV-1 protease inhibition activity (Ki), HIV-1 antiviral data (EC50), and the toxicity against normal cells (IC50), for particular compounds of formula (I). The HIV protease assay was done according to the protocol described in Kageyama et al, Antimicrob. Agents Chemother., 37, 272 (1993). The HIV antiviral assay was done according to the protocol described in Weislow et al., J. National Cancer Inst. 81, 577 (1989).

As usually defined, the pIC50 is −log10 of the IC50, conventionally taken in molar units.

pIC50: −log10 of the molar value.

On to `Cc1cccc(C)c1OCC(=O)N[C@@H](Cc1ccccc1)[C@@H](O)C[C@H](CC(C)C)NC(=O)[C@H](C(C)C)N1CCCC1=O`, for which the pIC50 was 5.00. Under `COc1ccc(S(=O)(=O)N(Cc2ccccc2)[C@H](C(=O)N[C@@H](CC(C)C)C[C@H](O)[C@H](Cc2ccccc2)NC(=O)COc2c(C)cccc2C)C(C)C)cc1` stands below 5.00. For `CC(C)C[C@@H](C[C@H](O)[C@H](Cc1ccccc1)NC(=O)C(NC(=O)OCc1ccccn1)C(C)C)NC(=O)C(NC(=O)OCc1ccccn1)C(C)C` (stereo partly drawn), the negative logarithm of the IC50 (pIC50) was below 4.70.
